# In patent US20240335465A1 (University of Virginia Patent Foundation, priority 2021, published 2024):
# System: DDR signaling
# Assay: DDR signaling immunoblotting in THP1 cells
# Conditions: 16 hours
smiles,measurement,value
"Nc1nc2c(ncn2[C@@H]2O[C@@H]3COP(=O)(O)O[C@H]4[C@@H](O)[C@H](n5cnc6c(N)ncnc65)O[C@@H]4COP(=O)(O)O[C@@H]2[C@@H]3O)c(=O)[nH]1 [cGAMP, cyclic guanosine monophosphate-adenosine monophosphate]","phosphorylation of histone H2AX (γH2AX), ATM, and CHK2",induced phosphorylation of all these proteins
